Experiment [1] has as its target human α-thrombin (human) (UniProt P00734). Briefly: amidolytic assay of α-thrombin with chromogenic substrate, Lineweaver-Burke, 37° C., no calcium.
Experiment [2] has the same target. As to the kind of experiment: amidolytic assay of α-thrombin with chromogenic substrate, Lineweaver-Burke, 37° C., 5 mM Ca2+.

As usually defined, the pKi is the Ki on a negative log10 scale, so that one unit is a factor of ten.

pKi: −log10 of the molar value.

CaM-DTI (designed binder): the results for the negative-log Ki (pKi) with human α-thrombin (human) [1] and in the experiment with human α-thrombin (human) [2] were 6.32 and 5.66, respectively.

Source of the values: patent publication US20090105116A1.
